This is an account of results in US20170073337A1, “DIHYDROTHIAZINE AND DIHYDROOXAZINE DERIVATIVES HAVING BACE1 INHIBITORY ACTIVITY” (Shionogi & Co., Ltd., priority 2014, published 2017).

The subject of experiment [1] is Aβ production in neuroblastoma SH-SY5Y cells (SH/APPwt). In words: β-amyloid (Aβ) production inhibitory effect in cell: 384-well. The class given is cell-based. Particulars: Homo sapiens, read-out: IC50 value. As to the method:
Neuroblastoma SH-SY5Y cells (SH/APPwt) with human wild-type β-APT excessively expressed therein were prepared at 4×10^5 cells/mL, and 50 μl portions thereof were inoculated into each well of a 384-well culture plate (Corning) added 0.5 μl of the test compound of the present invention (DMSO solution). The final DMSO concentration was 1%, and the amount of the cell culture was 50 μl. After the incubation was performed for 21 hours from the cell seeding, 5 μl of the culture supernatant was collected from each fraction. The amount of the Aβ in each fraction was measured.
The Aβ amount was measured as follows. 5 μl of a homogeneous time resolved fluoresrenee (HTRF) measurement reagent (Amyloid β1-40 peptide; CIS bio international) and 5 μl of the culture supernatant were put into a 384′well plate (a black plate: Corning) and mixed with each other, and then left standing overnight at 4° C. while the light was shielded. Then, the fluorescence intensity (620 nm and 665 nm) was measured with EnViston (Perkin Elmer life sciences).

Experiment [2] shares this test system. Kind of experiment: β-amyloid (Aβ) production inhibitory effect in cell: 96-well. In kind it is cell-based. As to conditions: Homo sapiens, read-out: IC50 value. As to the method: Neuroblastoma SH-SY5V cells (SH/APPwt) with human wild-type R-APP excessively expressed therein were prepared at 8×10^5 cells/mL, and 150 μl portions thereof were inoculated into each well of a 96-well culture plate (Falcon). The cells were cultured for 2 hours at […]. in a 5% gaseous carbon dioxide incubator. […] Namely, the final DMSO concentration was 1%, and the amount of the cell culture was 200 μl. After the incubation was performed for 24 hours from the addition of the test compound, 100 μl of the culture supernatant was collected from each fraction. The amount of the Aβ in each fraction was measured. The Aβ amount was measured as follows. 10 μl of a homogeneous time resolved fluorescence (HTRF) measurement reagent (Amyloid β1-40 peptide: CIS bio international) and 10 μof the culture supernatant were put into a 384-well half area microplate (black microplate, Costar) and mixed with each other, and then left standing overnight at 4° C. while the light was shielded.

Structures are written as SMILES.

A word on the IC50: it is the concentration that gives 50% inhibition. Take `C[C@@H]1SC(N)=N[C@](C)(c2cc(NC(=O)c3cnc(OCF)cn3)ccc2F)[C@@H]1F` [Compound I-112]: the half-inhibitory concentration (IC50) in experiment [1] is 0.05 µM. On to `C[C@H]1SC(N)=N[C@](C)(c2cc(NC(=O)c3cnc(OCF)cn3)ccc2F)[C@H]1F` [Compound I-9], for which the half-inhibitory concentration (IC50) in experiment [2] stood at 0.000235 µM.
